Test results taken from ChEMBL document CHEMBL5108053 (J Med Chem, 2022).

Assay: in vivo
Conditions: rat, po

OC[C@H]1O[C@@H](S[C@@H]2O[C@H](CO)[C@H](O)[C@H](n3cc(-c4cccc(F)c4)nn3)[C@H]2O)[C@H](O)[C@@H](n2cc(-c3cccc(F)c3)nn2)[C@H]1O [OLITIGALTIN]
bioavailability: < 1%
